Where two headings read alike, the source gives them in different places.
How the values were obtained:
KRAS = KRAS (Homo sapiens, UniProt P01116); assay: KRASamp MSD assay; conditions: read-out: Average DC50; KE39 (KRAS amplified) cells, treated with test compounds for 24 hr, MSD readout of KRAS degradation
Procedure: KE39 (KRAS amplified) cells were cultured in RPMI 1640 medium (Gibco, 11875093), seeded into 96 well plate and treated with test compounds for 24 hr. The cells were washed with PBS and lysed in plate for 1 hr at 4° C. with agitation in RIPA buffer (Cat No. BP-115D) supplemented with protease and phosphatase inhibitor cocktail. The lysates were loaded into MSD plate coated with KRAS capture antibody (LSBio, C175665, 1:1000) for 1 h at RT with agitation. The plate was then washed three times with TBST and incubated with KRAS detection antibody (Abcam, Ab275876. 1:2000) for 1 h at RT. After washing three times with TBST, the plate was incubated with secondary detection antibody GAR (1:500) for 1 hr at RT followed with 3×TBST washing. 2×MSD reading buffer was added into individual wells and the plate was finally read by MSD reader (MSD, SQ 120 MM). The recombinant WT KRAS protein was used for standard curve generation and protein quantification. The degradation activity was calculated using the following formula: […]
DC50 was calculated by fitting the curve using GraphPad Prism v8.0.2 (analysis 263): […]

Chains of the proteins cited; added tags and fusions are not shown. Residues count along the entry.
UniProt P01116, 1-188 isoform 2 G12D: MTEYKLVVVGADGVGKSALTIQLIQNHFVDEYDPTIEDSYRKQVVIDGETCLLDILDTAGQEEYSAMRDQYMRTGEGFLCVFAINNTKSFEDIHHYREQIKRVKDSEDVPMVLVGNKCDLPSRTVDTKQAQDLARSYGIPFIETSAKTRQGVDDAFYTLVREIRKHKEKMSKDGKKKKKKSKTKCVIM
UniProt P01116, 1-188 isoform 2 G12V: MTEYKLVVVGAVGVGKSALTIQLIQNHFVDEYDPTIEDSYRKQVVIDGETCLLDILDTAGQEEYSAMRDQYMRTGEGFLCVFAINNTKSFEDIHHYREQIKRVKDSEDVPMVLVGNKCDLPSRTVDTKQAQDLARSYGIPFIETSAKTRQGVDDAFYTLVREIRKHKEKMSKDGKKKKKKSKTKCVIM
UniProt P01116, 1-188 isoform 2: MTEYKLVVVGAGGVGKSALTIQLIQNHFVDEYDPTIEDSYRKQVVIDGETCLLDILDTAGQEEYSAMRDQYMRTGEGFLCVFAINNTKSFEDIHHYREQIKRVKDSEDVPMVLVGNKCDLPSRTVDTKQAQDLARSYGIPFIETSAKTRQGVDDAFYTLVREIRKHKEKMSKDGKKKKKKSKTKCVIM

KRAS G12V = KRAS G12V (Homo sapiens, UniProt P01116, G12V); assay: KRAS G12V HiBit assay; conditions: read-out: Average DC50; SW620-KRAS (G12V)-HiBit-KI cells, compound treatment for 24 hours, class symbols
KRAS G12D = KRAS G12D (Homo sapiens, UniProt P01116, G12D); assay: KRAS G12D HiBit assay; conditions: read-out: Average DC50, AsPc-1-KRAS (G12D)-HiBit-KI cell, compound treatment for 24 hours, absolute DC50

Structure (SMILES)	DC50 (KRAS) [µM]	DC50 (KRAS G12V) [µM]	DC50 (KRAS G12D; class symbols) [µM]	DC50 (KRAS G12D; numeric bounds given in place of class symbols) [µM]
CCc1c(F)ccc2cc(O)cc(-c3ncc4c(N5CCC[C@@](C)(O)C5)nc(OC[C@@]56CCCN5[C@@H](CN5CCC(CN7CCC(c8ccc9c(c8)n(C)c(=O)n9C8CCC(=O)NC8=O)CC7)CC5)CC6)nc4c3F)c12 (stereo partly drawn)	0.001 to 0.01	0.01 to 0.1	< 0.1	
CCc1c(F)ccc2cc(O)cc(-c3ncc4c(N5CCC[C@@](C)(O)C5)nc(OC[C@@]56CCCN5[C@H](COC5CCc7cc(CN8CCC(c9ccc%10c(c9)n(C)c(=O)n%10C9CCC(=O)NC9=O)CC8)ccc75)CC6)nc4c3F)c12 (stereo partly drawn)		< 0.01	< 0.1	
CCc1c(F)ccc2cc(O)cc(-c3ncc4c(N5CCC[C@@](C)(O)C5)nc(OC[C@@]56CCCN5[C@H](CN5CCC(Cc7ccc8c(c7)n(C)c(=O)n8C7CCC(=O)NC7=O)CC5)CC6)nc4c3F)c12 (stereo partly drawn)		> 0.1		> 0.1
CCc1c(F)ccc2cc(O)cc(-c3ncc4c(N5CCC[C@@](C)(O)C5)nc(OC[C@@]56CCCN5[C@H](CNCC5CCC(CN7CCC(c8ccc9c(c8)n(C)c(=O)n9C8CCC(=O)NC8=O)CC7)CC5)CC6)nc4c3F)c12 (stereo partly drawn)	0.001 to 0.01	0.01 to 0.1	< 0.1	
CCc1c(F)ccc2cc(O)cc(-c3ncc4c(N5CCC[C@@](C)(O)C5)nc(OC[C@@]56CCCN5[C@H](CN5CCC(OC7CCN(c8ccc9c(c8)n(C)c(=O)n9C8CCC(=O)NC8=O)CC7)CC5)CC6)nc4c3F)c12 (stereo partly drawn)		0.01 to 0.1	< 0.1	
CCc1c(F)ccc2cc(O)cc(-c3ncc4c(N5CCC[C@@](C)(O)C5)nc(OC[C@]56CCCN5[C@H](CN5CCC(CN7CCC(c8ccc9c(c8)n(C)c(=O)n9C8CCC(=O)NC8=O)CC7)CC5)CC6)nc4c3F)c12 (stereo partly drawn)	0.001 to 0.01	0.01 to 0.1	< 0.1	
